Data: patent US20230190774A1, “METHOD OF USING SUBSTRATES OF AKR1Bl/AKR1B10 AS ANTI-CANCER DRUGS” (Beijing Normal University Hong Kong Baptist University …, priority 2015, published 2023)

Experiment: Acute toxicity test in mice
Settings: i.v., n=8

Structure (SMILES): O=CC(O)CO (racemic) [Glyceraldehyde, glyceraldehyde]
- Death/Total (dose 1000 mg/kg BW): 0/8
- Death/Total (dose 2000 mg/kg BW): 0/8
